The list shows a part of the results, in another mix than the full data. Some salts or complexes appear as unconnected parts, following the source record. A structure can be active in one record and inactive in another. Activity calls are given as the source filed them. Cut-off read from the data, not from the text of the source: active = growth inhibition above about 70%; inactive = the rest.
Assays:
[1] = NCI Yeast Anticancer Drug Screen. Data for the rad50 strain (AID 155);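 note: 0% = growth of vehicle-only cultures of the same strain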; conditions: S. cerevisiae rad50 strain growth inhibition, hits give high values
[2] = NCI Yeast Anticancer Drug Screen. Data for the mec2-1 strain (AID 157); conditions: S. cerevisiae mec2-1 strain, hits give high values
[3] = NCI Yeast Anticancer Drug Screen. Data for the sgs1 mgt1 strain (AID 161);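 note: 0% = growth of cultures given vehicle only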; conditions: S. cerevisiae sgs1 mgt1 strain, hits give high values
[4] = NCI Yeast Anticancer Drug Screen. Data for the cln2 rad14 strain (AID 165);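 note: 0% = growth equal to vehicle treated cultures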; conditions: S. cerevisiae cln2 rad14 strain, hits give high values
[5] = NCI Yeast Anticancer Drug Screen. Data for the bub3 strain (AID 167); conditions: S. cerevisiae bub3 mutant strain, hits give high values
[6] = NCI Yeast Anticancer Drug Screen. Data for the mlh1 rad18 strain (AID 175); conditions: S. cerevisiae mlh1 rad18 strain growth inhibition, hits give high values
[7] = at 5.0 µM (retest, dose inferred, filed as 0.5)
[8] = at 50.0 µM (retest, dose inferred, filed as 5.0)

| Compound | growth inhibition [1, 7] | growth inhibition [1, 8] | growth inhibition ([1]; at 50.0 µM) | growth inhibition [2, 7] | growth inhibition [2, 8] | growth inhibition ([2]; at 50.0 µM) | growth inhibition [3, 7] | growth inhibition [3, 8] | growth inhibition ([3]; at 50.0 µM) | growth inhibition [4, 7] | growth inhibition [4, 8] | growth inhibition ([4]; at 50.0 µM) | growth inhibition [5, 7] | growth inhibition [5, 8] | growth inhibition ([5]; at 50.0 µM) | growth inhibition [6, 7] | growth inhibition [6, 8] | growth inhibition ([6]; at 50.0 µM) |
| --- | --- | --- | --- | --- | --- | --- | --- | --- | --- | --- | --- | --- | --- | --- | --- | --- | --- | --- |
| CCOC(=O)CN(CCCl)CCCl.O=[N+]([O-])c1cc([N+](=O)[O-])c(S(=O)(=O)O)c([N+](=O)[O-])c1 | inactive: -1% | inactive: 22% | inactive: 38.6% | inactive: 6% | inactive: 31% | inactive: 44.5% | inactive: 15% | inactive: 58% | active: 79.2% | inactive: -1% | inactive: 19% | active: 71.2% | inactive: 5% | inactive: 44% | inactive: 13.9% | inactive: 13% | inactive: 41% | inactive: 40.9% |
| O=[N+]([O-])c1cc([N+](=O)[O-])c2nonc2c1 | inactive: 11% | active: 99% | inactive: 48.5% | inactive: 0% | active: 99% | inactive: 48% | inactive: 9% | active: 97% | inactive: 61.4% | inactive: -8% | active: 97% | inactive: 9.7% | inactive: -14% | active: 99% | inactive: 54% | inactive: 8% | active: 99% | active: 80.8% |
| O=[N+]([O-])c1nc(Br)n(F)c1[N+](=O)[O-] | inactive: 21% | inactive: 29% | inactive: 25.4% | inactive: 18% | inactive: 33% | inactive: 17.3% | inactive: 28% | inactive: 66% | active: 91.7% | inactive: 19% | inactive: -3% | active: 91% | inactive: 18% | inactive: 3% | active: 89.2% | inactive: 29% | inactive: 49% | inactive: 34.6% |
| O=[N+]([O-])C1([N+](=O)[O-])CCC([N+](=O)[O-])([N+](=O)[O-])c2nn(-c3ccccc3)nc21 | inactive: 21% | active: 85% | inactive: 69% | inactive: 16% | inactive: 65% | inactive: 39.2% | inactive: 28% | active: 77% | active: 78.7% | inactive: 17% | inactive: 59% | inactive: 66.5% | inactive: 18% | inactive: 69% | inactive: 65% | inactive: 28% | active: 81% | active: 74.7% |
| COP(C)(=O)OC(N)(N)SC (stereo not given) |  |  | inactive: 5.75% |  |  | inactive: -14% |  |  | inactive: 1.85% |  |  | inactive: -16.8% |  |  | inactive: -5.85% |  |  | inactive: 8.4% |
| O=C(OCCN1CCCCC1)C(O)(c1ccccc1)c1ccc(-c2ccccc2)cc1 (stereo not given) | inactive: -6% | inactive: 25% | active: 99% | inactive: 15% | inactive: 47% | active: 99.5% | inactive: -12% | inactive: 62% | active: 99.6% | inactive: -5% | inactive: 19% | active: 93.8% | inactive: -7% | inactive: 25% | active: 98.9% | inactive: 16% | inactive: 64% | active: 99.5% |
| O=[N+]([O-])c1cc([N+](=O)[O-])c(Nc2cc(Cl)cc(Cl)c2)c([N+](=O)[O-])c1 | inactive: 57% | active: 96% | active: 83.7% | active: 94% | active: 99% | active: 84.7% | active: 73% | active: 98% | active: 87.3% | inactive: 61% | active: 97% | active: 80.5% | active: 91% | active: 98% | active: 84.1% | active: 96% | active: 98% | active: 81.3% |
| C1CN1.NC(Cc1cnc[nH]1)C(=O)O.Nc1ncnc2nc[nH]c12 (stereo not given) |  | inactive: 33% |  | inactive: -3% | inactive: 5% | active: 97.8% |  | inactive: 11% |  |  | inactive: 7% | active: 98.8% |  | inactive: 10% | active: 97.8% |  | inactive: 21% | active: 98.5% |
| CC(C)OP(C)(=O)O | inactive: -2% | inactive: 5% | inactive: 5.3% [middle of 5 runs] | inactive: -2% | inactive: 2% | inactive: -0.05% [middle of 5 runs] | inactive: -2% | inactive: -2% | inactive: 2.8% [middle of 5 runs] | inactive: 0% | inactive: 5% |  | inactive: 6% | inactive: 8% |  | inactive: -20% | inactive: -3% | inactive: 1.25% [middle of 5 runs] |
| C[S+]1C2CCCCCCC21.O=[N+]([O-])c1cc([N+](=O)[O-])c(S(=O)(=O)[O-])c([N+](=O)[O-])c1 | inactive: 6% | inactive: 23% | inactive: 53% | inactive: 22% | inactive: 43% | inactive: 26.4% | inactive: 29% | inactive: 61% | inactive: 66.7% |  | inactive: 24% | inactive: 45.1% | inactive: 3% | inactive: 25% | inactive: 33.2% | inactive: 30% | inactive: 59% | inactive: 34% |
| C(c1nnn[n-]1)c1nnn[n-]1.[Au+].[Au+].c1ccc([PH+](c2ccccc2)c2ccccc2)cc1.c1ccc([PH+](c2ccccc2)c2ccccc2)cc1 | inactive: 27% |  | active: 84% | active: 81% |  | active: 86.1% | inactive: 58% | active: 99% | active: 88.3% | inactive: 33% |  | active: 90.2% | inactive: 36% | active: 99% | active: 89.7% | inactive: 43% | active: 99% | active: 91.8% |
| CC(C)OP(C)(=O)O.[Er] | inactive: 0% | inactive: 4% | inactive: 9.45% | inactive: 4% | inactive: -3% | inactive: 27.2% | inactive: -3% | inactive: -1% | inactive: 0.9% | inactive: 2% | inactive: -3% | inactive: 62.1% | inactive: 0% | inactive: -4% | inactive: 2% | inactive: 30% | inactive: -5% | inactive: -1.95% |
| O=[N+]([O-])c1cc([N+](=O)[O-])c(Nc2ccc(Cl)cc2)c([N+](=O)[O-])c1 | active: 78% | active: 89% | active: 81.3% | active: 80% | active: 90% | active: 86.3% | inactive: 58% | active: 97% |  | inactive: 59% | active: 96% |  | active: 85% | active: 98% |  | inactive: 34% | active: 94% | active: 83% |
| CCN(CC)CCOC(=O)C(O)(c1ccccc1)c1c(C)cccc1C (stereo not given) | inactive: -1% | inactive: -4% | inactive: 32.6% | inactive: 4% | inactive: 15% | inactive: 21.1% | inactive: -5% | inactive: -17% | inactive: 55.5% | inactive: -2% | inactive: -1% | inactive: 14.3% | inactive: -4% | inactive: -2% | inactive: 17.1% | inactive: 11% | inactive: -8% | inactive: 59.8% |
| CCOC(=S)Sc1c([N+](=O)[O-])cc([N+](=O)[O-])cc1[N+](=O)[O-] | active: 90% | active: 98% | active: 93.1% | active: 99% | active: 99% | active: 94.3% | active: 92% | active: 98% | active: 92.6% | active: 87% | active: 99% | active: 90.2% | active: 99% | active: 98% | active: 91.5% | active: 99% | active: 98% | active: 92% |
| CC(O)C1CCCCN1C.O=[N+]([O-])c1cc([N+](=O)[O-])c(O)c([N+](=O)[O-])c1 | inactive: 2% | inactive: 8% | inactive: 6% | inactive: 14% | inactive: 35% | inactive: 3.1% | inactive: 1% | inactive: -29% | inactive: 44% | inactive: -7% | inactive: 0% | inactive: -2.4% | inactive: -8% | inactive: -10% | inactive: 8.35% | inactive: -3% | inactive: -1% | inactive: -8.9% |
| CC[S+]1C2CCCCCCC21.O=[N+]([O-])c1cc([N+](=O)[O-])c(S(=O)(=O)[O-])c([N+](=O)[O-])c1 | inactive: 9% | inactive: 31% | inactive: 50.4% | inactive: 20% | inactive: 59% | inactive: 20.9% | inactive: 15% | inactive: 63% | inactive: 68.2% | inactive: -2% |  | inactive: 43.5% | inactive: 2% | inactive: 31% | inactive: 38.7% | inactive: 36% | inactive: 62% | inactive: 33.8% |
| O=[N+]([O-])N1CCN([N+](=O)[O-])CC1 |  |  | inactive: -24.4% |  |  | inactive: 1.35% |  |  | inactive: -9.75% |  |  | inactive: -27.4% |  |  | inactive: -14.8% |  |  | inactive: -14.7% |
| Cc1c([N+](=O)[O-])cc([N+](=O)[O-])c(Br)c1[N+](=O)[O-] | active: 95% | active: 99% |  | inactive: 57% | active: 100% |  | active: 88% | active: 99% |  | inactive: 45% | active: 99% |  | active: 79% | active: 100% |  | inactive: 62% | active: 99% |  |

From PubChem BioAssay (NCI)
